Consider two compounds from patent US10961222B2, “Chemical compound of isocitrate dehydrogenase inhibitor, and application thereof” (NANJING SANHOME PHARMACEUTICAL CO., LTD., priority 2016, dated 2021).

The experiment relates to U87-MG (IDH2-R140Q) subcutaneous xenograft tumor. The experiment can be described thus: Subcutaneous xenograft tumor caused by U87-MG (IDH2-R140Q) mutant cells in vivo: intratumor 2-HG. Conditions: 6.25 mg/kg, intragastric, mean, relative to U87-MG (IDH2-R140Q) control group. On the set-up: species or system BALB/c nude mice. An excerpt:
1.2 Animals: BALB/c nude mice, 6-7 weeks old, female, 18-22 g, purchased from Nanjing Jinlaichang Company.
U87-MG (IDH2-R140Q) cells and U87-MG cells (wild type) were expanded, and cells in logarithmic growth phase were used for tumor inoculation in vivo. 16 mice were inoculated subcutaneously into the right lower back of the body at an amount of 2×10^6 cells/mouse (the volume ratio of cell suspension to Matrigel was 1:0.8).
The non-mutation control group was nude mice inoculated with U87-MG cells, and the test compound groups and vehicle control group were nude mice inoculated with U87-MG (IDH2-R140Q) cells.
Each group was intragastrically administered with a corresponding concentration of the compound solution, the administration volume was 100 μL/10 g body weight, and the control group was administered the same volume of blank vehicle.
After 10 days of administration, the mice were sacrificed. The tumors were exfoliated, homogenized, and the 2-HG content in the tumor was examined.
The 2-HG concentration in the homogenate of each animal tumor in each group was determined by LC-MS/MS. The percentage (2-HG %) was calculated; the calculation formula is as follows 2-HG %=(2-HG concentration of administration group tumor−2-HG concentration of U87-MG control group tumor)/(2-HG concentration of U87−MG(IDH2-R140Q) control group tumor−2-HG concentration of U87-MG control group tumor)×100%.

SMILES strings stand for the structures.

With `O[C@]1(C(F)(F)F)CCN(c2nc(Nc3ccnc(C(F)(F)F)c3)nc(-c3cccc(C(F)(F)F)n3)n2)C1` [Example 22A, (R)-4-(3-trifluoromethyl-3-hydroxypyrrolidin-1-yl)-6-(6-(trifluoromethyl)pyridin-2-yl)-N-(2-(trifluoromethyl)pyridin-4-yl)-1,3,5-triazin-2-amine], the “Intratumor 2-HG(%) after 10 days of administration” value stood at 31%. The figure for `O[C@@]1(C(F)(F)F)CCN(c2nc(Nc3ccnc(C(F)(F)F)c3)nc(-c3cccc(C(F)(F)F)n3)n2)C1` [Example 22B, (S)-4-(3-trifluoromethyl-3-hydroxypyrrolidin-1-yl)-6-(6-(trifluoromethyl)pyridin-2-yl)-N-(2-(trifluoromethyl)pyridin-4-yl)-1,3,5-triazin-2-amine] is −2%.
